Here are results for 73 compounds from PubChem BioAssay AID2237 (Johns Hopkins Ion Channel Center, 2010).

Chains of the proteins cited; added tags and fusions are not shown.
UniProt Q9QUQ5, whole entry: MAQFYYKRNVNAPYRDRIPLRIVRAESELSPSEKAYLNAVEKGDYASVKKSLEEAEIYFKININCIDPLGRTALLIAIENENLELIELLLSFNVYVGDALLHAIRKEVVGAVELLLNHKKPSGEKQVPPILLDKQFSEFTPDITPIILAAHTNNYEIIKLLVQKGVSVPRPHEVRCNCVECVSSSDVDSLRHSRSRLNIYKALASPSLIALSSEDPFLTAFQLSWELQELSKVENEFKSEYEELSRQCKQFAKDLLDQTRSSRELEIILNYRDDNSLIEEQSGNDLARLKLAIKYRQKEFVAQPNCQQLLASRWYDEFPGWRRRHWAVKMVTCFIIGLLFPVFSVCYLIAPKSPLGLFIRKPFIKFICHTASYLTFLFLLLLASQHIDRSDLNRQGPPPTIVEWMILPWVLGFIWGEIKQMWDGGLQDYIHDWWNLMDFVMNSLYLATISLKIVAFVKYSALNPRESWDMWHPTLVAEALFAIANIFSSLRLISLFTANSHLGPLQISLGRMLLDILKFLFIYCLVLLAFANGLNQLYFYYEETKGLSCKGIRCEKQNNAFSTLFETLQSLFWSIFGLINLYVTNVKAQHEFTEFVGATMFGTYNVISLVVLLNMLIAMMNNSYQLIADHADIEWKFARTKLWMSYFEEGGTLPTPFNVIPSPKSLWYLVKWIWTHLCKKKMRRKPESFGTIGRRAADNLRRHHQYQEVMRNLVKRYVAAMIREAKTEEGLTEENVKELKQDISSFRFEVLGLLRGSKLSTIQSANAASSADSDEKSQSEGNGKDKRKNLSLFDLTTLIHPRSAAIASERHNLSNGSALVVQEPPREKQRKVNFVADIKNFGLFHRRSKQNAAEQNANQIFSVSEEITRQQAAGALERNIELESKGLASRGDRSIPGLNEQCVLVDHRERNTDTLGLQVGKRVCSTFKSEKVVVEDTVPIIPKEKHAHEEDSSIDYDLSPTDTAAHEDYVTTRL

Only a part is listed here, and it is no random draw. Some salts or complexes appear as unconnected parts, following the source record. Activity calls are given as the source filed them.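 How the source made its calls: active means B-score above 5 SD of library B-scores, and initial fluorescence ratio not above library mean plus 5 SD; inactive means the rest.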

The assay addresses Short transient receptor potential channel 4 (Mus musculus) (UniProt Q9QUQ5). The assay is described as follows: activators of mouse TRPC4 channel, primary screen, Fluo4 calcium, HEK293 TRPC4beta/mu-opioid cells (AID 2237). The settings on record: Fluo4 calcium fluorescence, at 10 µM.
Regarding `O=[N+]([O-])c1cc([N+](=O)[O-])c(CCNc2ccccc2)c([N+](=O)[O-])c1`, the outcome was inactive.
Take `Cc1ccc(NP(=O)(Oc2ccccc2)Oc2ccccc2)nc1`: the result was inactive.
Next, `CP(=O)(Oc1ccccc1)N1CCOC1=O` (stereo not drawn): “inactive”; `O=C(OCCCN1CCCC1)C(O)(c1ccccc1)C1CCCCC1` (stereo not drawn): “inactive”; `O=[N+]([O-])c1cccc2n[nH]nc12`: “inactive”.
Next, `CC(=O)N1C2C3N(C(C)=O)C1C1N(C(C)=O)C(C(N1C(C)=O)N3C(C)=O)N2C(C)=O`: “inactive”; `COc1ccccc1OP(C)(=O)Nc1c(C)n(C)n(-c2ccccc2)c1=O` (stereo not drawn): “inactive”; `COc1ccc(C2=NCC(CBr)S2)cc1` (stereo not drawn): “inactive”.
Next, `COc1ccc(OP(C)(=O)Nc2ccc(Br)cc2)cc1` (stereo not drawn): “inactive”; `CCN(CC)CC(O)COC(=O)C(O)(c1ccccc1)C1CCCCC1` (stereo not drawn): “inactive”; `CC1CCN(C(=O)Oc2c(Cl)cc(Cl)c3cccnc23)CC1`: “inactive”.
For the compound `CN(C)C(=O)OCCc1n(C)cc[n+]1C`, the outcome was inactive.
As to `CN(C)C(=O)c1c([N+](=O)[O-])cc([N+](=O)[O-])cc1[N+](=O)[O-]`, the outcome was inactive.
With `CC(C)=N/N=C(\N)N[N+](=O)[O-]`, the outcome was inactive.
Next, `CP(=O)(Nc1ccc(Cl)cc1)Oc1ccc(F)cc1` (stereo not drawn): “inactive”; `CCN(/C(=N/P(=O)(N1CCOCC1)N1CCOCC1)N1CCOCC1)c1ccc(OC)cc1`: “inactive”; `C[N+]1=C2C=CC=CC=C2SC12C([N+](=O)[O-])=CC([N+](=O)[O-])=C[C-]2[N+](=O)[O-]` (stereo not drawn): “inactive”.
On to `COc1ccccc1OP(C)(=O)Nc1ccccc1Br` (stereo not drawn), for which the result was inactive.
Take `CC(C)(C)c1ccc(OP(C)(=O)O)cc1`: the outcome was inactive.
Take `Nc1ccc([As](=O)(O)c2ccc(N)cc2)cc1`: the outcome was inactive.
Next, `CP(=O)(OC12CC3CC(CC(C3)C1)C2)OC12CC3CC(CC(C3)C1)C2`: “inactive”.
With `O=C(Nc1cc([As](=O)(O)O)ccc1O)c1ccccc1`, the result was inactive.
Next, `CCOC(=O)c1ccc(NP(C)(=O)Oc2ccc(Cl)cc2)cc1` (stereo not drawn): “inactive”; `Nc1ccc2c(ccc3cccnc32)n1.O=[N+]([O-])c1cc([N+](=O)[O-])c(O)c([N+](=O)[O-])c1`: “inactive”; `O=C(O)CNc1ccc([As](=O)(O)O)cc1`: “inactive”.
In the case of `O=[N+]([O-])c1cccc(NC2=NCC(CBr)S2)c1` (stereo not drawn), the outcome was inactive.
Next, `O=[N+]([O-])c1ncn(CCn2ncnc2[N+](=O)[O-])n1`: “inactive”.
Turning to `CC(C)(C)C(=O)NC(Sc1ccncn1)C(Cl)(Cl)Cl` (stereo not drawn), the result was inactive.
Turning to `COc1ccc(OP(C)(=O)Nc2ccccc2Br)cc1` (stereo not drawn), the result was inactive.
Next, `COc1ccccc1OP(C)(=O)Nc1ccc(C)c(C)c1` (stereo not drawn): “inactive”; `Cc1ccc(NP(=O)(Oc2ccccc2F)Oc2ccccc2F)nc1`: “inactive”; `CN(C(=O)Cc1ccc(Cl)c(Cl)c1)[C@H]1CCCC[C@@H]1N1CCCC1`: “inactive”.
As to `Cc1cc(SC(NC(=O)c2ccc(F)cc2)C(Cl)(Cl)Cl)ncn1` (stereo not drawn), the outcome was inactive.
Next, `CCOP(=O)(Nc1ccccc1)OCC`: “inactive”; `O=P(Nc1nc2ccc(Cl)cc2s1)(c1ccccc1)c1ccccc1`: “inactive”.
For `Cc1cc(C)cc(OP(C)(=O)Nc2cccc(C(F)(F)F)c2)c1` (stereo not drawn), the outcome was inactive.
In the case of `CC(=O)Nc1ccc([As](=O)(O)O)cc1`, the outcome was inactive.
As to `O=C(O)c1ccccc1[As](=O)(O)O`, the result was inactive.
As to `CP(=O)(Nc1ccc(Cl)cc1Cl)Oc1ccccc1` (stereo not drawn), the outcome was inactive.
Consider `CP(=O)(OCCOc1ccccc1)OCCOc1ccccc1`, for which the outcome was inactive.
Regarding `Nc1cccc2ccc([As](=O)(O)O)cc12`, the result was inactive.
As for `CCN(N=Nc1nonc1N)c1nonc1N`, the outcome was inactive.
For `O=[N+]([O-])c1cc([N+](=O)[O-])c(CCN2CCOCC2)c([N+](=O)[O-])c1`, the outcome was inactive.
In the case of `Cc1nc2ccc3ccccc3c2o1.O=[N+]([O-])c1cc([N+](=O)[O-])c(O)c([N+](=O)[O-])c1`, the result was inactive.
Take `CN1CCCC(OC(=O)C(c2ccccc2)c2ccccc2)C1` (stereo not drawn): the outcome was inactive.
As to `Clc1ccc(Cl)c(NC2=NCC(CBr)S2)c1` (stereo not drawn), the result was inactive.
`CN(C)CCOC(=O)C(O)(c1ccccc1)C1CCCC1` (stereo not drawn): the outcome was inactive.
As to `Cc1ccc(OP(=O)(Nc2nccs2)Oc2ccc(C)cc2)cc1`, the result was inactive.
As for `COc1ccccc1OP(=O)(Nc1ccc(C)cn1)Oc1ccccc1OC`, the outcome was inactive.
With `COc1ccc(OP(C)(=O)Nc2ccccn2)cc1` (stereo not drawn), the result was inactive.
For the compound `Cc1ccc(N/C(=N/P(=O)(N2CCOCC2)N2CCOCC2)N2CCOCC2)cc1`, the result was inactive.
With `COc1ccccc1OP(C)(=O)Nc1ccc(Br)cc1` (stereo not drawn), the outcome was inactive.
Next, `NC(=O)c1cc([N+](=O)[O-])cc([N+](=O)[O-])c1N`: “inactive”.
Next, `CCc1ccc(OP(C)(=O)O)cc1`: “inactive”; `COc1ccccc1OP(C)(=O)Nc1ccc(C)cc1C` (stereo not drawn): “inactive”; `CP(=O)(Nc1ccccn1)Oc1ccccc1` (stereo not drawn): “inactive”.
Consider `O=C(NC(Sc1ccncn1)C(Cl)(Cl)Cl)c1ccccc1` (stereo not drawn), for which the outcome was inactive.
Consider `Cc1c2non([O-])c-2c(C)[n+](=O)[n+]1[O-]`, for which the result was inactive.
Next, `Oc1ccccc1CNc1ccccn1`: “inactive”; `Cc1c(NP(C)(=O)Oc2ccc(C(C)C)cc2)c(=O)n(-c2ccccc2)n1C` (stereo not drawn): “inactive”.
Regarding `Nc1cc(N)c2nonc2c1[N+](=O)[O-]`, the result was inactive.
For `CC(C)CC(=O)NC(Sc1ccc(Cl)cc1)C(Cl)(Cl)Cl` (stereo not drawn), the outcome was inactive.
For the compound `O=[N+]([O-])c1cc([N+](=O)[O-])c(Nc2ccccn2)c([N+](=O)[O-])c1`, the result was inactive.
`CC(C)c1ccc(OP(C)(=O)Nc2ccc(SC(F)(F)F)cc2)cc1` (stereo not drawn): the result was inactive.
On to `CC(C)(C)C(=O)NC(Sc1ccccc1)C(Cl)(Cl)Cl` (stereo not drawn), for which the result was inactive.
For the compound `CP(=O)(Nc1ccccc1F)Oc1ccccc1` (stereo not drawn), the outcome was inactive.
With `CCOc1ccc(C2=NCC(CBr)S2)cc1` (stereo not drawn), the outcome was inactive.
With `O=P1(Nc2nc3ccc(Cl)cc3s2)COc2ccccc2O1` (stereo not drawn), the result was inactive.
With `CC(=O)Nc1ccc(Oc2c([N+](=O)[O-])cc([N+](=O)[O-])cc2[N+](=O)[O-])cc1`, the result was inactive.
Turning to `CC(=O)Nc1ccc([As](=O)(O)O)c(O)c1`, the result was inactive.
As to `COc1ccc2c(c1O)-c1c(O)c(OC)cc3c1[C@H](C2)[N+](C)(C)CC3.O=[N+]([O-])c1cc([N+](=O)[O-])c([O-])c([N+](=O)[O-])c1[O-]`, the outcome was inactive.
Consider `C[C@H]1OP(=O)(Oc2ccccc2)C[C@@H]2O[C@@H]21` (stereo partly drawn), for which the outcome was inactive.
Next, `C[C@@H]1C=CCP(=O)(Oc2ccccc2)O1` (stereo partly drawn): “inactive”.
